In PubChem BioAssay AID588591 (National Center for Advancing Translational Sciences (NCATS), 2011) one finds activity change, negative = inhibition data, which are given here for 84 molecules.

Chains of the proteins cited; added tags and fusions are not shown.
UniProt Q9Y253, whole entry: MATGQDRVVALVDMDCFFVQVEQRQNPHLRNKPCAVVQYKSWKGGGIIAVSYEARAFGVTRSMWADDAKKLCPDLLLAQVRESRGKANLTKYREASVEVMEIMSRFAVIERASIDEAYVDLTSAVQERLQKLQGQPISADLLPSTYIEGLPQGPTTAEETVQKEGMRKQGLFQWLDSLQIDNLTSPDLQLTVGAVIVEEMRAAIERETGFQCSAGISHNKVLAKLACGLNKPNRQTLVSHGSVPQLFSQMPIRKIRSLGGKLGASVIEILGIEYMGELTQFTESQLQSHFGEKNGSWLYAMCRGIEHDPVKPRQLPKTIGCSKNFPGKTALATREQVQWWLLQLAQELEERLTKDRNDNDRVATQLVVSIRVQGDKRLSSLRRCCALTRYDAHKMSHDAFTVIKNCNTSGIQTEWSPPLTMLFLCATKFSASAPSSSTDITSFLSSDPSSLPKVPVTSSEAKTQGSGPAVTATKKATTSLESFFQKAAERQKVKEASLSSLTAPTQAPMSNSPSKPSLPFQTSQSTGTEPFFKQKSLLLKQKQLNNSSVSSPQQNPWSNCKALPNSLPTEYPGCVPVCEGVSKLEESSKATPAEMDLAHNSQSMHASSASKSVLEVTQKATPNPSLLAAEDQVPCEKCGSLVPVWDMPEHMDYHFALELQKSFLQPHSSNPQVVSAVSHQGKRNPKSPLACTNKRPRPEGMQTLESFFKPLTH

This is a selection; strong and weak results do not stand in their true shares. Records with an inconclusive call do not appear. The source made the active and inactive calls. The call rests on the fitted dose curve; in most records, active means well fitted inhibition curve with a large enough effect; inconclusive means small, poorly fitted or top-dose-only effect, or another doubt; inactive means no such curve, though single readings can be large or run the other way.
On the % scale 0 is the no-effect control and ±100 the full control effect.

For this experiment, the target named is DNA polymerase eta (Homo sapiens) (UniProt Q9Y253). The experiment in a line: qHTS for Inhibitors of Polymerase Eta. To be noted: recombinant Pol eta, fluorescent DNA replication assay; at 114 µM (top of the series) unless noted. (Quantitative high-throughput screening tests each substance at several concentrations.)
On to `CN(C)C(=O)c1c([N+](=O)[O-])cc([N+](=O)[O-])cc1[N+](=O)[O-]`, for which the activity change, negative = inhibition was inactive: -12.1%.
Consider `CP(=O)(Nc1ccc(Cl)cc1)Oc1ccc(F)cc1` (centres undefined), for which the activity change, negative = inhibition is inactive: -2.21%.
Turning to `CC(C)(C)c1ccc(OP(C)(=O)O)cc1`, the activity change, negative = inhibition was inactive: -5.56%.
Consider `COc1ccccc1OP(C)(=O)Nc1ccccc1Br` (centres undefined), for which the activity change, negative = inhibition is inactive: -11.5%.
As to `CP(=O)(Oc1ccccc1)N1CCOC1=O` (centres undefined), the activity change, negative = inhibition is inactive: -2.91%.
The same measure for `CCc1ccc(OP(C)(=O)Nc2cccnc2)cc1` (centres undefined): inactive: -17.3%.
In the case of `COc1ccccc1OP(C)(=O)Nc1c(C)n(C)n(-c2ccccc2)c1=O` (centres undefined), the activity change, negative = inhibition is inactive: -13.9%.
In the case of `O=C(OCCCN1CCCC1)C(O)(c1ccccc1)C1CCCCC1` (centres undefined), the activity change, negative = inhibition is inactive: 7.12%.
The same measure for `N#[O+].[C-]#N.[C-]#N.[C-]#N.[C-]#N.[C-]#N.[Fe+2].[Na+].[Na+]`: inactive: -6.71% [at 57.1 µM]; for `CCN(CC)CC(O)COC(=O)C(O)(c1ccccc1)C1CCCCC1` (centres undefined): inactive: 1.96%.
The same measure for `COc1ccc(OP(C)(=O)Nc2ccc(Br)cc2)cc1` (centres undefined): inactive: -22%; for `CP(=O)(OC12CC3CC(CC(C3)C1)C2)OC12CC3CC(CC(C3)C1)C2`: inactive: -22.3%; for `CCOC(=O)c1ccc(NP(C)(=O)Oc2ccc(Cl)cc2)cc1` (centres undefined): inactive: -21.2%.
Take `Nc1ccc2c(ccc3cccnc32)n1.O=[N+]([O-])c1cc([N+](=O)[O-])c(O)c([N+](=O)[O-])c1`: the activity change, negative = inhibition is inactive: 4.73%.
For the molecule `CP(=O)(OCCOc1ccccc1)OCCOc1ccccc1`, the activity change, negative = inhibition is inactive: -0.034%.
On to `CP(=O)(Nc1ccc(Cl)cc1Cl)Oc1ccccc1` (centres undefined), for which the activity change, negative = inhibition is inactive: -4.66%.
Consider `COc1ccc(OP(C)(=O)Nc2ccccc2Br)cc1` (centres undefined), for which the activity change, negative = inhibition was inactive: -8.37%.
For the molecule `COc1ccccc1OP(C)(=O)Nc1ccc(C)c(C)c1` (centres undefined), the activity change, negative = inhibition was inactive: 0.059%.
As to `Cc1cc(C)cc(OP(C)(=O)Nc2cccc(C(F)(F)F)c2)c1` (centres undefined), the activity change, negative = inhibition was inactive: -7.59%.
The same measure for `CCc1ccc(OP(C)(=O)O)cc1`: inactive: -14.5%; for `CP(=O)(Nc1ccccn1)Oc1ccccc1` (centres undefined): inactive: 4.43%; for `COc1ccccc1OP(C)(=O)Nc1ccc(C)cc1C` (centres undefined): inactive: -2.88%.
`O=[N+]([O-])c1cc([N+](=O)[O-])c(Nc2ccccn2)c([N+](=O)[O-])c1`: the activity change, negative = inhibition is inactive: -11.2%.
As to `Cc1c(NP(C)(=O)Oc2ccc(C(C)C)cc2)c(=O)n(-c2ccccc2)n1C` (centres undefined), the activity change, negative = inhibition is inactive: -6.63%.
Turning to `CN(C)CCOC(=O)C(O)(c1ccccc1)C1CCCC1` (centres undefined), the activity change, negative = inhibition is inactive: -10.9%.
For the molecule `COc1ccc(OP(C)(=O)Nc2ccccn2)cc1` (centres undefined), the activity change, negative = inhibition was inactive: -4.22%.
As to `COc1ccccc1OP(C)(=O)Nc1ccc(Br)cc1` (centres undefined), the activity change, negative = inhibition is inactive: -13.5%.
`O=C(OCCN1CCN(CCOCc2ccccc2)CC1)C(O)(c1ccccc1)c1ccccc1`: the activity change, negative = inhibition was inactive: -3.75%.
For `CC(C)c1ccc(OP(C)(=O)Nc2ccc(SC(F)(F)F)cc2)cc1` (centres undefined), the activity change, negative = inhibition is inactive: -18.1%.
The value for `CP(=O)(Nc1ccccc1F)Oc1ccccc1` (centres undefined) was inactive: -0.488%.
The value for `CP(=O)(Nc1ccccc1)Oc1ccc(F)cc1` (centres undefined) was inactive: -4.47%.
`CCN(CC)CCCOC(=O)C(O)(c1ccccc1)C1CCCCC1` (centres undefined): the activity change, negative = inhibition was inactive: -7.63%.
Turning to `Cc1c([N+](=O)[O-])cc([N+](=O)[O-])c(Br)c1[N+](=O)[O-]`, the activity change, negative = inhibition was inactive: -13.3%.
Consider `COc1ccc(OP(C)(=O)Nc2ccc(SC(F)(F)F)cc2)cc1` (centres undefined), for which the activity change, negative = inhibition is inactive: -29.4%.
Take `CCOC(=O)c1ccc(NP(C)(=O)Oc2ccc(F)cc2)cc1` (centres undefined): the activity change, negative = inhibition is inactive: -19.2%.
For `Cc1c(C(c2ccc3c(c2)OCO3)c2c(C)n(C)n(-c3ccccc3)c2=O)c(=O)n(-c2ccccc2)n1C.O=[N+]([O-])c1cc([N+](=O)[O-])c(O)c([N+](=O)[O-])c1`, the activity change, negative = inhibition is inactive: -11.7%.
For `Cc1cc(-c2cccc3ccccc23)c(C)cn1.O=[N+]([O-])c1cc([N+](=O)[O-])c(O)c([N+](=O)[O-])c1`, the activity change, negative = inhibition was inactive: -9.67%.
The value for `O=[N+]([O-])c1ccc(OP2(=O)COCCO2)cc1` (centres undefined) was inactive: 5.95%.
As to `COc1ccc(NP(C)(=O)Oc2ccccc2OC)cc1` (centres undefined), the activity change, negative = inhibition was inactive: -2.83%.
On to `CN(C)CCOC(=O)C(O)(c1ccccc1)C1CCCCC1` (centres undefined), for which the activity change, negative = inhibition was inactive: -16.7%.
Consider `COc1ccc(OP(C)(=O)Nc2cccc(Br)c2)cc1` (centres undefined), for which the activity change, negative = inhibition was inactive: 4.71%.
In the case of `Cc1ccccc1NP(C)(=O)Nc1ccccc1C`, the activity change, negative = inhibition was inactive: -18.1%.
Take `CP(=O)(Nc1ccc2c(c1)OCCO2)Oc1ccccc1` (centres undefined): the activity change, negative = inhibition was inactive: -7.04%.
The same measure for `CCOP(C)(=S)SCC(=O)NC(C)(CC)C(=O)O` (centres undefined): inactive: -7.41%; for `CP(=O)(Nc1ccc(SC(F)(F)F)cc1)Oc1ccc(F)cc1` (centres undefined): inactive: -17.3%; for `Cc1nc2ccc3ccccc3c2s1.O=[N+]([O-])c1cc([N+](=O)[O-])c(O)c([N+](=O)[O-])c1`: inactive: -8.31%.
As to `O=[N+]([O-])c1cc([N+](=O)[O-])c(-c2cnn(-c3ccccc3)c2)c([N+](=O)[O-])c1`, the activity change, negative = inhibition was inactive: -11.1%.
For `O=[N+]([O-])c1cc([N+](=O)[O-])c(-n2nnc3ccccc32)c([N+](=O)[O-])c1`, the activity change, negative = inhibition is inactive: 2.97%.
On to `CP(=O)(Nc1ccc(SC(F)(F)F)cc1)Oc1ccccc1` (centres undefined), for which the activity change, negative = inhibition was inactive: -8.89%.
Regarding `CCCOc1ccc(NP(C)(=O)Oc2ccc(Cl)cc2)cc1` (centres undefined), the activity change, negative = inhibition was inactive: -18.7%.
On to `CN1CCCCC1COC(=O)C1(O)c2ccccc2CCc2ccccc21` (centres undefined), for which the activity change, negative = inhibition was inactive: -13.3%.
Take `COc1ccccc1OP(C)(=O)Nc1c(C)cccc1C` (centres undefined): the activity change, negative = inhibition is inactive: -2.64%.
For `O=[N+]([O-])c1cc([N+](=O)[O-])c(Nc2nnnn2CCO)c([N+](=O)[O-])c1`, the activity change, negative = inhibition was inactive: -6.2%.
The value for `CC1=C2N=C(C=C3N=C(C(C)=C4[N-][C@@](C)([C@@H]5N=C1[C@](C)(CCC(=O)NC[C@@H](C)OP(=O)([O-])O[C@H]1[C@@H](O)[C@@H](n6cnc7cc(C)c(C)cc76)O[C@@H]1CO)[C@H]5CC(N)=O)[C@@](C)(CC(N)=O)[C@@H]4CCC(N)=O)[C@@](C)(CC(N)=O)[C@@H]3CCC(N)=O)C(C)(C)[C@@H]2CCC(N)=O.[C-]#N.[Co+3]` was inactive: -4.76%; that for `CC1=NCCc2c1[nH]c1ccccc21.O=[N+]([O-])c1cc([N+](=O)[O-])c(O)c([N+](=O)[O-])c1` was inactive: -8.26%; that for `CP(=O)(Nc1cccc(Br)c1)Oc1ccccc1` (centres undefined) was inactive: -15%.
In the case of `Cc1cc(C)cc(OP(C)(=O)Nc2ccccn2)c1` (centres undefined), the activity change, negative = inhibition was inactive: -6.92%.
With `Cc1ccc(C)c(NP(C)(=O)Oc2ccccc2)c1` (centres undefined), the activity change, negative = inhibition is inactive: 5.52%.
As for `Cc1cc(C)cc(OP(C)(=O)Nc2ccc(C)cc2C)c1` (centres undefined), the activity change, negative = inhibition is inactive: -7.74%.
`CCOC(=O)c1ccc(NP(C)(=O)Oc2cc(C)cc(C)c2)cc1` (centres undefined): the activity change, negative = inhibition was inactive: -5.3%.
Regarding `COc1ccccc1OP(C)(=O)Nc1cccc(Br)c1` (centres undefined), the activity change, negative = inhibition was inactive: -7.75%.
The value for `CCN(CC)CCCOC(=O)C(O)(c1ccccc1)c1ccccc1` was inactive: -4.2%; that for `COc1ccccc1OP(C)(=O)Nc1cc(Cl)ccc1C` (centres undefined) was inactive: -13.9%.
In the case of `COc1ccc(OP(C)(=O)Nc2cccc(F)c2)cc1` (centres undefined), the activity change, negative = inhibition is inactive: -22%.
The same measure for `Cc1cc(C)cc(OP(C)(N)=O)c1` (centres undefined): inactive: -16.6%; for `CCOC(=O)c1ccc(NP(C)(=O)Oc2ccccc2)cc1` (centres undefined): inactive: -12.7%; for `COc1ccccc1OP(C)(=O)Nc1ccc(C)cc1` (centres undefined): inactive: -6.77%.
The same measure for `Cc1ccc(NP(C)(=O)Oc2ccccc2)c(C)c1` (centres undefined): inactive: -4.02%.
The value for `Cc1cccc(C)c1OP(C)(N)=O` (centres undefined) was inactive: 3.22%; that for `O=[N+]([O-])c1ccc2c(c1)C=Nc1ccccc1O2` was inactive: -1.03%; that for `O=[N+]([O-])c1cc([N+](=O)[O-])c(Nc2cccnc2)c([N+](=O)[O-])c1` was inactive: -22.5%.
With `COc1ccccc1OP(C)(=O)Nc1ccccc1` (centres undefined), the activity change, negative = inhibition is inactive: -19.2%.
Consider `CP(=O)(Nc1ccccc1Br)Oc1ccccc1` (centres undefined), for which the activity change, negative = inhibition is inactive: -17.9%.
With `CP(=S)(Nn1cnnc1)Oc1ccccc1` (centres undefined), the activity change, negative = inhibition is inactive: -8.28%.
For the molecule `CP(=O)(Nc1ccccn1)Oc1ccc(Cl)cc1` (centres undefined), the activity change, negative = inhibition is inactive: 1.12%.
Take `CCOP(C)(=S)SCC(=O)NC(C)C(=O)O` (centres undefined): the activity change, negative = inhibition was inactive: -22.3%.
The same measure for `O=[N+]([O-])c1cc([N+](=O)[O-])c(O)c([N+](=O)[O-])c1.c1ccc(Oc2ccncc2)cc1`: inactive: -3.49%; for `CCOC(=O)c1ccc(NP(C)(=O)Oc2ccc(OC)cc2)cc1` (centres undefined): inactive: -15.4%; for `CCc1ccc(OP(C)(=O)N2CCN(c3ccc([N+](=O)[O-])cc3)CC2)cc1` (centres undefined): inactive: -8.1%.
Regarding `CP(=O)(NC(=O)Nc1ccccc1)Oc1ccccc1` (centres undefined), the activity change, negative = inhibition is inactive: 0.601%.
With `Cc1cc(C)cc(OP(C)(=O)Nc2ccc(SC(F)(F)F)cc2)c1` (centres undefined), the activity change, negative = inhibition was inactive: -12.3%.
The value for `CP(=O)(Nc1ccc(SC(F)(F)F)cc1)Oc1ccc(Cl)cc1` (centres undefined) was inactive: -12.1%.
Consider `Cc1cccc(C)c1OP(C)(=O)Nc1ccc(SC(F)(F)F)cc1` (centres undefined), for which the activity change, negative = inhibition is inactive: -22.2%.
With `CP(=O)(Oc1ccccc1)OC(c1ccccc1)C(F)(F)F` (centres undefined), the activity change, negative = inhibition is inactive: -5.92%.
